{
  "source": "ChEMBL document CHEMBL3877267",
  "about": "“Synthesis, biological evaluation and molecular modeling of 1-oxa-4-thiaspiro- and 1,4-dithiaspiro[4.5]decane derivatives as potent and selective 5-HT1A receptor agonists” (Eur J Med Chem, 2017)",
  "target": "T1, Alpha-1A adrenergic receptor (Homo sapiens, UniProt P35348)",
  "T1 sequence (P35348 whole entry)": "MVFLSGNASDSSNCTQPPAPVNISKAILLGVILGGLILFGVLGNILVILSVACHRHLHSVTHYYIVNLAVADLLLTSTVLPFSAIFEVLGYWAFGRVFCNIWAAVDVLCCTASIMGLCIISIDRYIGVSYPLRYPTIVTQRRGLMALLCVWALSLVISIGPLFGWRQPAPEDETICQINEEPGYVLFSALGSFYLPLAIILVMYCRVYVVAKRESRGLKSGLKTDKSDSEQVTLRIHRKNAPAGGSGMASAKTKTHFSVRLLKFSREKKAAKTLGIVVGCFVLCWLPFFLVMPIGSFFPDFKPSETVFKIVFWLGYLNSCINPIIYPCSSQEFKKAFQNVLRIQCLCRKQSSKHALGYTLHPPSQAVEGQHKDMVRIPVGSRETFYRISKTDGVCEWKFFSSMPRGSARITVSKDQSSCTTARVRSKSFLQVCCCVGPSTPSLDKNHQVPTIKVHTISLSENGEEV",
  "experiment": "Displacement of [3H]prazosin from recombinant human alpha1a adrenergic receptor expressed in CHO cell membranes after 30 mins by TopCount liquid scintillation counting method",
  "procedure,_shortened": "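Membranes from CHO cells stably expressing each human α1 subtype (70 µg protein), incubated in 50 mM Tris pH 7.4 with 0.1–0.4 nM [3H]prazosin and competitor (1 pM–1 µM) for 30 min at 25 °C. Nonspecific binding defined with 10 µM tamsulosin. Filtration and scintillation counting. Ki by Cheng–Prusoff; pKi mean of 2–3 experiments in duplicate.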",
  "data": [
    {"molecule": "COc1ccccc1N1CCN(CCN2C(=O)CC3(CCCC3)CC2=O)CC1", "note": "[BMY-7378]", "values": [
      {"measurement": "Ki", "result": 389, "unit": "nM"}
    ]}
  ]
}
